From patent EP1588698A2, “A process for the production and screening of materials for use in pharmaceutical aerosol formulations” (Thompson, James Anthony, priority 2004, dated 2005)

Assay: Screening of salt derivative solubility in ethanol co-solvent
Type: physicochemical
Details: ethanol reaction solution
Description: Solubility, of a drug salt derivative, to an appreciable extent, in solvents miscible with the propellant(s) provides a simple yet robust screening method.
The co-solvent used to screen derivative solubility and formulation approach was ethanol. […] A comprehensive list can be taken from texts such as the handbook of pharmaceutical excipients. Ethanol and water mixtures may be utilised. For solution aerosols a single phase is required when in the final formulation, but equally a suspension or emulsion may results and be utilised. As the model bronchodilator was a basic compound acids requisite for salt formation (from pKa values) were selected. […] The solvent necessary to facilitate dissolution is assumed to be of sufficient dielectric constant and an ideal solvent, although skilled practitioners will endeavor to try a range of solvents as formulation science is empirical. Other examples of suitable acids are acetate, benzenesulphonate, mesylate etc, and can be sought from any suitable text: Martindale 2005. […] Preferentially precipitated or solvated species may result from careful selection of reagents and forms of the active described. Preferentially precipitated or solvated compounds can be isolated either in bulk or in-situ for use.
Two non-limiting examples of use of the manufacture/ screening method are described below.

## salbutamol sulphate [reference compound]
  behaviour of the salt in ethanol solution (stable or precipitates): precipitated almost instantaneously
